# Measurements as given in patent publication US11940444B2, “Method of stabilizing molecules without refrigeration using water soluble polymers and applications thereof in performing chemical reactions” (priority 2013, dated 2024).
# Experiment: Fluorescence intensity-based thermal unfolding of HSA
# Assay type: physicochemical
# Conditions: pullulan film vs solution, tryptophan emission intensity
# Description: Human serum albumin (60 pM final concentration) was dissolved into either 100 mM Tris-HCl (pH 7.5) or 100 mM Tris-HCl containing 10% pullulan. These pullulan solutions, with or without HSA, were carefully pipetted onto the quartz slides (500 μL/slide) and allowed to dry overnight at 21° C. and 48% RH in order to produce the film samples.
# Fluorescence measurements were acquired using a Cary Eclipse fluorescence spectrophotometer. Solution samples were measured in quartz cuvettes and continuously stirred throughout the experiments. […]
# For fluorescence emission spectra, samples were excited at 295 nm (to ensure that the light was absorbed almost entirely by the lone tryptophanyl residue) and emission was collected at 310-450 nm in 1 nm increments, using a 5-nm bandpass for both excitation and emission paths and an integration time of 0.1 s. […]
# For thermal denaturation studies, the temperature was raised in ˜5° C. increments from 20° C. to 90° C. and allowed to equilibrate at each temperature for at least 5 min. The temperature in the cuvette was measured directly with a thermistor probe. […] Emission scans are measured in relative fluorescence units, RFU, and all values are reported as the average of three separate samples.
substance,measurement,value
Human serum albumin,increase of unfolding temperature,20 °C
